# Patent US9200046B2, “Reporter system for high throughput screening of compounds and uses thereof” (priority 2011, dated 2015)
# Amino acid sequences for entries named in this document (tags omitted).
# UniProt Q14145, whole entry: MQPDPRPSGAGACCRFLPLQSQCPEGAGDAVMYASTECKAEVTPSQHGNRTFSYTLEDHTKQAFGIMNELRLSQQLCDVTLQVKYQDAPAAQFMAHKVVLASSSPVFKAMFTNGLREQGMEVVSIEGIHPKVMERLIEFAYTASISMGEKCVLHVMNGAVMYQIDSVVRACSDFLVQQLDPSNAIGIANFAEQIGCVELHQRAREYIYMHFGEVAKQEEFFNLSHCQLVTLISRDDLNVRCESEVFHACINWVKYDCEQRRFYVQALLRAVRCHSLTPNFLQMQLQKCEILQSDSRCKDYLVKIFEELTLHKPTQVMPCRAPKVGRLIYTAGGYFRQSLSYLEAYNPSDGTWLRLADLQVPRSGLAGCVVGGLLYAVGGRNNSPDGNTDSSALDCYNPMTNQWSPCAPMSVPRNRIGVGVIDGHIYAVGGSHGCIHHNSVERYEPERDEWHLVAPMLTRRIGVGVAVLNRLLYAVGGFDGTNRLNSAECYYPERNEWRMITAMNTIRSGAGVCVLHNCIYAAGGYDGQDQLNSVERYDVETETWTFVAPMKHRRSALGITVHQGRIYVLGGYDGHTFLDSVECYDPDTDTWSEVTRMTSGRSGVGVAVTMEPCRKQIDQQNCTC
# Biological target: Nrf2-Keap1 complex (Homo sapiens, UniProt Q14145)
smiles,measurement,value
COc1cc([C@@H]2c3cc4c(cc3[C@@H](O)[C@H]3COC(=O)[C@H]23)OCO4)cc(OC)c1O [4′-DEMETHYLEPIPODOPHYLLOTOXIN],Activation 100 nL,185%
same,Activation 200 nL,165%
